The values below are quoted from earlier work in paper PMC7472518, “Ultrasensitive Detection of Enzymatic Activity Using Single Molecule Arrays” (Journal of the American Chemical Society, 2020).

This data set deals with Bcr-Abl. Particulars: read-out: Ki (reported); protein-ligand binding experiments; cited from earlier work.

On to `Cc1nc(Nc2ncc(C(=O)Nc3c(C)cccc3Cl)s2)cc(N2CCN(CCO)CC2)n1`, for which the Ki (commonly the equilibrium dissociation constant of an inhibitor or competing ligand from its target) was 0.03 ± 0.022 nM.
